What was measured:
rat orexin 1 receptor = rat orexin 1 receptor (Rattus norvegicus, UniProt P56718); experiment: Rat orexin 1 receptor radioligand binding; details: averages of 2-20 runs, read-out: rOX1 Ki
Description: (§1) Data are analyzed using pc-Sandy macro and graphed on Graphpad Prism 5. For analysis, each concentration point is averaged from triplicate values and the averaged values are plotted on Graphpad Prism. The IC50 was determined by applying the following equation (GraphPad Prism 5.0, SanDiego) for one site competition where X=log (concentration) and Y=specific binding. Top denotes the total [^3H]-(1-(5-(2-fluoro-phenyl)-2-methyl-thiazol-4-yl)-1-((S)-2-(5-phenyl-(1,3,4)oxadiazol-2-ylmethyl)-pyrrolidin-1-yl)-methanone) binding, bottom denotes the nonspecific [^3H]-(1-(5-(2-fluoro-phenyl)-2-methyl-thiazol-4-yl)-1-((S)-2-(5-phenyl-(1,3,4)oxadiazol-2-ylmethyl)-pyrrolidin-1-yl)-methanone) binding. Graphpad Prism calculates Ki value from IC50 and the pre-determined Kd values for [^3H]-(1-(5-(2-fluoro-phenyl)-2-methyl-thiazol-4-yl)-1-((S)-2-(5-phenyl-(1,3,4)oxadiazol-2-ylmethyl)-pyrrolidin-1-yl)-methanone) and [3H]-EMPA. The Ki for each compound is then uploaded into 3DX. Each run comprises individual compounds in triplicate.
(§2) Rat and Human Orexin 1 Receptor Radioligand Binding Studies
After centrifugation (2K×G, 5 min at 4° C.), the supernatant was aspirated and the pellets frozen and stored at −80° C. […] Each cell pellet from a 15 cm plate was resuspended in 10 mL, stored on ice, and homogenized for 45 sec prior to addition to the reactions. Competition binding experiments in 96 well polypropylene plates were performed using [^3H]-(1-(5-(2-fluoro-phenyl)-2-methyl-thiazol-4-yl)-1-((S)-2-(5-phenyl-(1,3,4)oxadiazol-2-ylmethyl)-pyrrolidin-1-yl)-methanone) (Moraveck Corporation, specific activity=35.3 Ci/mmol), diluted to a 10 nM concentration in PBS (4 nM final). […] The final concentration of DMSO in the reactions is equal to or less than 0.1%. Total and nonspecific binding was determined in the absence and presence of 10 μM almorexant. The total volume of each reaction is 200 μL (20 μL of diluted compounds, 80 μL of [^3H]-(1-(5-(2-fluoro-phenyl)-2-methyl-thiazol-4-yl)-1-((S)-2-(5-phenyl-(1,3,4)oxadiazol-2-ylmethyl)-pyrrolidin-1-yl)-methanone) diluted in PBS and 100 μL of the cell suspension). […] The plates were washed 3 times by aspirating 30 ml PBS through the plates. Plates were dried in 55° C. oven for 60 min, scintillation fluid was added, and the radioactivity was counted on a Topcount (Packard).

The chains behind the UniProt entries cited, without tags or fusion partners.
UniProt O43614, whole entry: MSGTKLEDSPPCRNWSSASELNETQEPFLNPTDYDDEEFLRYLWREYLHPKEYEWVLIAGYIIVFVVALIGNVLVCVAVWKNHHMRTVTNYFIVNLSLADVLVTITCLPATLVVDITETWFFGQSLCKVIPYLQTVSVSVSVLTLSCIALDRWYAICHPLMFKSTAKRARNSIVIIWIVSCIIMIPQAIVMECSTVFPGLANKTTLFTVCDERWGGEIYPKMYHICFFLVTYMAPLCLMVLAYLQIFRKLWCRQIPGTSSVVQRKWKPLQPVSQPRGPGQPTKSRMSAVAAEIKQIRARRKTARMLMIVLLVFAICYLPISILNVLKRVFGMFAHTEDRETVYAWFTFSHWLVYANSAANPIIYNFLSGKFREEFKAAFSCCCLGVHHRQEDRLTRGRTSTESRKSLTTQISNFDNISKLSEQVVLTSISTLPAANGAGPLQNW

human orexin 1 receptor = human orexin 1 receptor (Homo sapiens, UniProt O43613); experiment: Human orexin 1 receptor radioligand binding; details: averages of 2-20 runs, read-out: hOX1 Ki
Description: The in vitro affinity of the compounds of the invention for the rat/human orexin 1 and human orexin 2 receptors was determined by competitive radioligand binding using [^3H](1-(5-(2-fluoro-phenyl)-2-methyl-thiazol-4-yl)-1-((S)-2-(5-phenyl-(1,3,4)oxadiazol-2-ylmethyl)-pyrrolidin-1-yl)-methanone) (Langmead et al., 2004) and [^3H]EMPA (n-ethyl-2[96-methoxypyridin-3-yl)-(toluene-2-sulfonyl)-amino]-N-pyridin-3-ylmethyl acetamide), respectively (Langmead et al., 2004, British Journal of Pharmacology 141:340-346; Malherbe et al., 2004, British Journal of Pharmacology 156:1326-41).
as §1, §2
Human Embryonic Kidney 293 cells (HEK293) stably expressing rat orexin 1 receptor (Genebank accession number NM_001525) or Chinese ovary cells (CHO) stably expressing human orexin 1 receptor (Genebank accession number NM_001526) were grown to confluency in DMEM (Hyclone, cat #SH30022), 10% FBS, 1×Pen/Strep, 1× sodium pyruvate, 10 mM HEPES, 600 μg/mL G418 and DMEM/F12 (Gibco, Cat #11039), 10% FBS, 1×Pen/Strep, 600 μg/mL G418 media, respectively on 150 cm^2 tissue culture plates, washed with 5 mM EDTA in PBS (HyClone Dulbecco's Phosphate Buffered Saline 1× with Calcium and Magnesium, Cat #SH30264.01, hereafter referred to simply as PBS) and scraped into 50 ml tubes. After centrifugation (2K×G, 5 min at 4° C.), the supernatant was aspirated and the pellets frozen and stored at −80° C. Cells were resuspended in PBS in the presence of 1 tablet of protease inhibitor cocktail (Roche, Cat. #11836145001) per 50 mL. Each cell pellet from a 15 cm plate was resuspended in 10 mL, stored on ice, and homogenized for 45 sec prior to addition to the reactions. Competition binding experiments in 96 well polypropylene plates were performed using [^3H]-(1-(5-(2-fluoro-phenyl)-2-methyl-thiazol-4-yl)-1-((S)-2-(5-phenyl-(1,3,4)oxadiazol-2-ylmethyl)-pyrrolidin-1-yl)-methanone) (Moraveck Corporation, specific activity=35.3 Ci/mmol), diluted to a 10 nM concentration in PBS (4 nM final). Compounds were solubilized in 100% DMSO (Acros Organics, Cat. #61042-1000) and tested over a range of 7 concentrations (from 0.1 nM to 10 μM). The final concentration of DMSO in the reactions is equal to or less than 0.1%. Total and nonspecific binding was determined in the absence and presence of 10 μM almorexant. The total volume of each reaction is 200 μL (20 μL of diluted compounds, 80 μL of [^3H]-(1-(5-(2-fluoro-phenyl)-2-methyl-thiazol-4-yl)-1-((S)-2-(5-phenyl-(1,3,4)oxadiazol-2-ylmethyl)-pyrrolidin-1-yl)-methanone) diluted in PBS and 100 μL of the cell suspension). Reactions were run for 60 min at room temperature and terminated by filtration through GF/C filter plates (PerkinElmer, Cat. #6005174) presoaked in 0.3% polyethylenimine using the cell harvester (PerkinElmer Filtermate). The plates were washed 3 times by aspirating 30 ml PBS through the plates.

human orexin 2 receptor = human orexin 2 receptor (Homo sapiens (Human), UniProt O43614); experiment: Human orexin 2 receptor radioligand binding ([3H]-EMPA); details: averages of 2-20 runs, read-out: hOX2 Ki
Description: as §1
Human Orexin 2 Receptor Radioligand Binding Studies
HEK293 stably expressing human orexin 2 receptor (Genebank accession number NM_001526) were grown to confluency in DMEM (Hyclone, cat #SH30022), 10% FBS, 1×Pen/Strep, 1× NaPyruvate, 10 mM HEPES, 600 ug/ml G418 media on 150 cm^2 tissue culture plates, washed with 5 mM EDTA in PBS (HyClone Dulbecco's Phosphate Buffered Saline 1× with Calcium and Magnesium, Cat #SH30264.01, hereafter referred to simply as PBS) and scraped into 50 ml tubes. After centrifugation (2K×G, 5 min at 4° C.), the supernatant was aspirated and the pellets frozen and stored at −80° C. […] Each cell pellet from a 15 cm plate was resuspended in 10 mL, stored on ice, and homogenized for 45 sec just prior to addition to the reactions. Competition binding experiments in 96 well polypropylene plates were performed using [^3H]-EMPA (Moraveck Corporation, specific activity=29.6 Ci/mmol), diluted to a 5 nM concentration in PBS (2 nM final concentration). […] The final concentration of DMSO in the reactions is equal to or less than 0.1%. Total and nonspecific binding was determined in the absence and presence of 10 μM almorexant. The total volume of each reaction is 200 μL (20 μL of diluted compounds, 80 μL of [^3H]-EMPA diluted in PBS and 100 μL of the cell suspension). […] The plates were washed 3 times by aspirating 30 ml PBS through the plates. Plates were dried in 55° C. oven for 60 min, scintillation fluid was added, and the radioactivity was counted on a Topcount (Packard).

Row | Ki (rat orexin 1 receptor) | Ki (human orexin 1 receptor) | Ki (human orexin 2 receptor) | SMILES
1 | 35 nM | 65 nM |  | C[C@H]1[C@H](Nc2ncc(C(F)(F)F)cn2)CCCN1C(=O)c1ccc(F)cc1-c1ncccn1 (relative stereo) [Example 202, (4-fluoro-2-(pyrimidin-2-yl)phenyl)((2S*,3R*)-2-methyl-3-((5-(trifluoromethyl)pyrimidin-2-yl)amino)piperidin-1-yl)methanone]
2 | 34 nM | 28 nM |  | C[C@H]1[C@H](Nc2ccc(C(F)(F)F)cn2)CCCN1C(=O)c1ccc(F)cc1-c1ncco1 (relative stereo) [Example 203, (4-fluoro-2-(oxazol-2-yl)phenyl)((2S*,3R*)-2-methyl-3-((5-(trifluoromethyl)pyridin-2-yl)amino)piperidin-1-yl)methanone]
3 | 15 nM | 12 nM |  | C[C@H]1[C@H](Nc2cnc(C(F)(F)F)cn2)CCCN1C(=O)c1cccc(F)c1-c1ncccn1 (relative stereo) [Example 207, (3-fluoro-2-(pyrimidin-2-yl)phenyl)((2S*,3R*)-2-methyl-3-((5-(trifluoromethyl)pyrazin-2-yl)amino)piperidin-1-yl)methanone]
4 | 25 nM | 32 nM |  | C[C@H]1[C@H](Oc2ccc(C(F)(F)F)cn2)CCCN1C(=O)c1ncccc1-c1ncccn1 (relative stereo) [Example 210, ((2S*,3R*)-2-methyl-3-((5-(trifluoromethyl)pyridin-2-yl)oxy)piperidin-1-yl)(3-(pyrimidin-2-yl)pyridin-2-yl)methanone]

The next lines start with the molecule.

Row | SMILES | Ki (rat orexin 1 receptor) | Ki (human orexin 1 receptor) | Ki (human orexin 2 receptor)
5 | Cc1ccc(C(=O)N2CCC[C@@H](Nc3cnc(Cl)cn3)[C@@H]2C)c(-n2nccn2)c1 (relative stereo) [Example 180, ((2S*,3R*)-3-((5-chloropyrazin-2-yl)amino)-2-methylpiperidin-1-yl)(4-methyl-2-(2H-1,2,3-triazol-2-yl)phenyl)methanone] | 31 nM | 27 nM | 
6 | Cc1cnc(C(=O)N2CCC[C@@H](Nc3cnc(Cl)cn3)[C@@H]2C)c(-n2nccn2)c1 (relative stereo) [Example 182, ((2S*,3R*)-3-((5-chloropyrazin-2-yl)amino)-2-methylpiperidin-1-yl)(5-methyl-3-(2H-1,2,3-triazol-2-yl)pyridin-2-yl)methanone] |  |  | 10000 nM
7 | Cc1cnc(C(=O)N2CCC[C@@H](Nc3ncc(Cl)cn3)[C@@H]2C)c(-n2nccn2)c1 (relative stereo) [Example 183, ((2S*,3R*)-3-((5-chloropyrimidin-2-yl)amino)-2-methylpiperidin-1-yl)(5-methyl-3-(2H-1,2,3-triazol-2-yl)pyridin-2-yl)methanone] |  |  | 8900 nM
8 | Cc1noc(-c2cc(F)ccc2C(=O)N2CCC[C@@H](Nc3ccc(C(F)(F)F)cn3)[C@@H]2C)n1 (relative stereo) [Example 190, (4-fluoro-2-(3-methyl-1,2,4-oxadiazol-5-yl)phenyl)((2S*,3R*)-2-methyl-3-((5-(trifluoromethyl)pyridin-2-yl)amino)piperidin-1-yl)methanone] |  |  | 1200 nM
9 | CCOc1ccc(C)nc1C(=O)N1CCC[C@@H](Nc2ccc(C(F)(F)F)cn2)[C@@H]1C (relative stereo) [Example 194, (3-ethoxy-6-methylpyridin-2-yl)((2S*,3R*)-2-methyl-3-((5-(trifluoromethyl)pyridin-2-yl)amino)piperidin-1-yl)methanone] | 24 nM | 24 nM | 
10 | Cc1cnc(C(=O)N2CCC[C@@H](Nc3nnc(C(F)(F)F)s3)[C@@H]2C)c(-n2nccn2)c1 (relative stereo) [Example 195, ((2S*,3R*)-2-methyl-3-((5-(trifluoromethyl)-1,3,4-thiadiazol-2-yl)amino)piperidin-1-yl)(5-methyl-3-(2H-1,2,3-triazol-2-yl)pyridin-2-yl)methanone] |  |  | 10000 nM
11 | C[C@H]1[C@H](Nc2ncc(C(F)(F)F)cn2)CCCN1C(=O)c1cccc(F)c1-c1ncccn1 (relative stereo) [Example 200, (3-fluoro-2-(pyrimidin-2-yl)phenyl)((2S*,3R*)-2-methyl-3-((5-(trifluoromethyl)pyrimidin-2-yl)amino)piperidin-1-yl)methanone] | 35 nM | 27 nM | 

Source: patent US9611251B2, “Substituted piperidine compounds and their use as orexin receptor modulators” (Janssen Pharmaceutica NV, priority 2013, dated 2017)
